Laboratory results as given in PubChem BioAssay AID2023 (NMMLSC, 2009).
Only a part is listed here, and it is no random draw. Calls of active or inactive are those of the source.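 The calls were made as follows: active = GFP response vs DMSO above a set limit, about the screen mean plus 3 SD (cut at about 150% in these data); inconclusive = under 70 cell events counted for the yeast strain; inactive = the rest.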

Experiment: TOR pathway LAP4-GFP level changes – S. cerevisiae, multiplex flow cytometry, MLPCN library, primary screen (AID 2023)
Details: 3 h, at 10 µM, active compounds read high, median GFP as percent of DMSO wells

SMILES	GFP response vs DMSO
CC(C)c1ccc(OP(C)(=O)Nc2ccc(SC(F)(F)F)cc2)cc1 (centres undefined)	inactive: 106%
CP(=O)(Nc1ccccc1F)Oc1ccccc1 (centres undefined)	inactive: 79.3%
CCCCCOc1ccc(NP(C)(=O)Oc2ccc(Cl)cc2Cl)cc1 (centres undefined)	inactive: 114%
O=[N+]([O-])c1cc([N+](=O)[O-])c(OC2CCCCC2O)c([N+](=O)[O-])c1 (centres undefined)	inactive: 99%
CP(=O)(Nc1ccccc1)Oc1ccc(F)cc1 (centres undefined)	inactive: 96.9%
CCN(CC)CCCOC(=O)C(O)(c1ccccc1)C1CCCCC1 (centres undefined)	inactive: 108%
COc1ccc(OP(C)(=O)Nc2ccc(SC(F)(F)F)cc2)cc1 (centres undefined)	inactive: 94.3%
CCOC(=O)c1ccc(NP(C)(=O)Oc2ccc(F)cc2)cc1 (centres undefined)	inactive: 96.1%
O=[N+]([O-])c1cc([N+](=O)[O-])c(NCC2CCS(=O)(=O)C2)c([N+](=O)[O-])c1 (centres undefined)	inactive: 93%
O=[N+]([O-])c1ccc(OP2(=O)COCCO2)cc1 (centres undefined)	inactive: 90.3%
COc1ccc(NP(C)(=O)Oc2ccccc2OC)cc1 (centres undefined)	inactive: 95.5%
CN(C)CCOC(=O)C(O)(c1ccccc1)C1CCCCC1 (centres undefined)	inactive: 103%
COc1ccc(OP(C)(=O)Nc2cccc(Br)c2)cc1 (centres undefined)	inactive: 95.8%
Cc1ccccc1NP(C)(=O)Nc1ccccc1C	inactive: 86.9%
CP(=O)(Nc1ccc2c(c1)OCCO2)Oc1ccccc1 (centres undefined)	inactive: 93.1%
CCOP(C)(=S)SCC(=O)NC(C)(CC)C(=O)O (centres undefined)	inactive: 102%
CP(=O)(Nc1ccc(SC(F)(F)F)cc1)Oc1ccc(F)cc1 (centres undefined)	inactive: 107%
CN(C)C(=O)c1c([N+](=O)[O-])cc([N+](=O)[O-])cc1[N+](=O)[O-]	inactive: 111%
CP(=O)(Nc1ccc(Cl)cc1)Oc1ccc(F)cc1 (centres undefined)	inactive: 92.1%
CC(C)(C)c1ccc(OP(C)(=O)O)cc1	inactive: 91.8%
COc1ccccc1OP(C)(=O)Nc1ccccc1Br (centres undefined)	inactive: 105%
CP(=O)(Oc1ccccc1)N1CCOC1=O (centres undefined)	inactive: 98%

SMILES	GFP response vs DMSO
CCc1ccc(OP(C)(=O)Nc2cccnc2)cc1 (centres undefined)	inactive: 105%
COc1ccccc1OP(C)(=O)Nc1c(C)n(C)n(-c2ccccc2)c1=O (centres undefined)	inactive: 79%
O=C(OCCCN1CCCC1)C(O)(c1ccccc1)C1CCCCC1 (centres undefined)	inactive: 112%
CCN(CC)CC(O)COC(=O)C(O)(c1ccccc1)C1CCCCC1 (centres undefined)	inactive: 104%
COc1ccc(OP(C)(=O)Nc2ccc(Br)cc2)cc1 (centres undefined)	inactive: 84.8%
CP(=O)(OC12CC3CC(CC(C3)C1)C2)OC12CC3CC(CC(C3)C1)C2	inactive: 101%
CCOC(=O)c1ccc(NP(C)(=O)Oc2ccc(Cl)cc2)cc1 (centres undefined)	inactive: 94.5%
Nc1ccc2c(ccc3cccnc32)n1.O=[N+]([O-])c1cc([N+](=O)[O-])c(O)c([N+](=O)[O-])c1	inactive: 127%
CP(=O)(OCCOc1ccccc1)OCCOc1ccccc1	inactive: 112%
CP(=O)(Nc1ccc(Cl)cc1Cl)Oc1ccccc1 (centres undefined)	inactive: 100%
Cc1nc2ccc3ccccc3c2o1.O=[N+]([O-])c1cc([N+](=O)[O-])c(O)c([N+](=O)[O-])c1	inactive: 90%
COc1ccc(OP(C)(=O)Nc2ccccc2Br)cc1 (centres undefined)	inactive: 80.3%
COc1ccccc1OP(C)(=O)Nc1ccc(C)c(C)c1 (centres undefined)	inactive: 90.3%
Cc1cc(C)cc(OP(C)(=O)Nc2cccc(C(F)(F)F)c2)c1 (centres undefined)	inactive: 103%
CCc1ccc(OP(C)(=O)O)cc1	inactive: 113%
CP(=O)(Nc1ccccn1)Oc1ccccc1 (centres undefined)	inactive: 99.5%
COc1ccccc1OP(C)(=O)Nc1ccc(C)cc1C (centres undefined)	inactive: 90.4%
O=[N+]([O-])c1cc([N+](=O)[O-])c(Nc2ccccn2)c([N+](=O)[O-])c1	inactive: 118%
Cc1c(NP(C)(=O)Oc2ccc(C(C)C)cc2)c(=O)n(-c2ccccc2)n1C (centres undefined)	inactive: 103%
CN(C)CCOC(=O)C(O)(c1ccccc1)C1CCCC1 (centres undefined)	inactive: 99.2%
COc1ccc(OP(C)(=O)Nc2ccccn2)cc1 (centres undefined)	inactive: 100%
COc1ccccc1OP(C)(=O)Nc1ccc(Br)cc1 (centres undefined)	inactive: 98.6%
